Measured values taken from patent US5599953A, “C-glycoside analogues of N-(4-hydroxyphenyl)retinamide-O-glucuronide” (The Ohio State Research Foundation, priority 1995, dated 1997).

Chains of the proteins cited; added tags and fusions are not shown. Residues count along the entry.
UniProt P22605, 1-448 isoform P22605-3: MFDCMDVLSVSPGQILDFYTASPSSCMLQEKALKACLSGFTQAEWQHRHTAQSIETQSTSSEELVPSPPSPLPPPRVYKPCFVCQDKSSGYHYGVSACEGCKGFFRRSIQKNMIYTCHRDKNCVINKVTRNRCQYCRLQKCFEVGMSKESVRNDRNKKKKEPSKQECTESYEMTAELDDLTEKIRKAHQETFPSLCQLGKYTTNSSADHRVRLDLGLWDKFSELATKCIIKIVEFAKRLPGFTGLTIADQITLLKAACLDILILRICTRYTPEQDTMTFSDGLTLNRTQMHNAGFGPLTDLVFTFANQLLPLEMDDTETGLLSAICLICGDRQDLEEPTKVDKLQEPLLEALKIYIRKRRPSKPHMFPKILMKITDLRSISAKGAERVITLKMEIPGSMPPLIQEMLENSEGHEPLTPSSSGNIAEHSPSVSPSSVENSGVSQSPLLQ

Molecular target: T1, mRARβ (Mus musculus, UniProt P22605)
T1 construct: made in house; host or cells: Spodoptera frugiperda insect cells, baculovirus (whole cell extract)
Experiment: Drug competition with (3H)retinoic acid binding, mRARβ
Details: read-out: percent reduction of binding of the (3H)retinoic acid, mRARβ

SMILES	inhibition at 1 µM
CC1=C(/C=C/C(C)=C/C=C/C(C)=C\C(=O)O)C(C)(C)CCC1 [13-cis-retinoic acid, reference compound]	13%
CC1=C(/C=C/C(C)=C/C=C/C(C)=C/C(=O)O)C(C)(C)CCC1 [retinoic acid, reference compound]	100%
